Test results from ChEMBL document CHEMBL1138042, “2-[(4-phenylpiperazin-1-yl)methyl]imidazo(di)azines as selective D4-ligands. Induction of penile erection by 2-[4-(2-methoxyphenyl)piperazin-1-ylmethyl]imidazo[1,2-a]pyridine (PIP3EA), a potent and selective D4 partial agonist” (J Med Chem, 2006).

Sequences of proteins named here, by UniProt entry; tags and fusion partners are left off.
UniProt P14416, whole entry, looked up: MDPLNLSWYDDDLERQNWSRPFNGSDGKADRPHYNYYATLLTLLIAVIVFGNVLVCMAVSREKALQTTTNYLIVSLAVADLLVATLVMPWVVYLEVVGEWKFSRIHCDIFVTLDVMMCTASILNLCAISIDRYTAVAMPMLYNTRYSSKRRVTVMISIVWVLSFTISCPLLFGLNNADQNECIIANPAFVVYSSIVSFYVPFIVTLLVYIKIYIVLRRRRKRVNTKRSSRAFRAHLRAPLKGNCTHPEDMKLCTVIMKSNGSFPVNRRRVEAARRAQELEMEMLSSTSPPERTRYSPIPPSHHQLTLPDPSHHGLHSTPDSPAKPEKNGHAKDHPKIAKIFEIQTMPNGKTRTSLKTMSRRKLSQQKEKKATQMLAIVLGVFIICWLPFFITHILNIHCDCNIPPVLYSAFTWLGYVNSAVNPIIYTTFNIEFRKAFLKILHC
UniProt P21917, whole entry, looked up: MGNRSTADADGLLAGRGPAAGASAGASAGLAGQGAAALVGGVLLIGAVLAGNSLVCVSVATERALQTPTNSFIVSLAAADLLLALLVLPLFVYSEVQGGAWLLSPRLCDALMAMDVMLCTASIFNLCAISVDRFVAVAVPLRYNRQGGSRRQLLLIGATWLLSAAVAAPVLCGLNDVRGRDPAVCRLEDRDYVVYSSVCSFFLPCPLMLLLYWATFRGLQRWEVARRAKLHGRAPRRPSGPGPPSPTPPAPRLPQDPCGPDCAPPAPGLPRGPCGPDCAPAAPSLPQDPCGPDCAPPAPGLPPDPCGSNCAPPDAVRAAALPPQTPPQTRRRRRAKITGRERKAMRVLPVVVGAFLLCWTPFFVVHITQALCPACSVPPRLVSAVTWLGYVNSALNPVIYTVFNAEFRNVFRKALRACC
UniProt P35462, whole entry, looked up: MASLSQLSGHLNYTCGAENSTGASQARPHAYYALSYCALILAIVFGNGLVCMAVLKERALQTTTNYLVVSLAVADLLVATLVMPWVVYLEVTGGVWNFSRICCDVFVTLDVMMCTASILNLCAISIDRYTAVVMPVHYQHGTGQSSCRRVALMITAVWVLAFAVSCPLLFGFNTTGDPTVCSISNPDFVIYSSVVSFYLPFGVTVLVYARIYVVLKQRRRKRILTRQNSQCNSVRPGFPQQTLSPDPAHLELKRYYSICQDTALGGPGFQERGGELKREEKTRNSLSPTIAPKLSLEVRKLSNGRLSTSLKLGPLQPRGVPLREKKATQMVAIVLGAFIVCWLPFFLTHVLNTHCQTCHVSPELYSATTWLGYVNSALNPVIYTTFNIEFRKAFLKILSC

Assays:
[1] = molecular target: T1, Dopamine receptors; D2 & D4 (Homo sapiens) (UniProt P14416+P21917); experiment: Selectivity for human dopamine D4.4 receptor over dopamine D2(long) receptor; type: protein assay
[2] = Selectivity for human dopamine D4.4 receptor over porcine dopamine D1 receptor
[3] = molecular target: T1, Dopamine receptors; D2 & D4 (Homo sapiens); experiment: Selectivity for human dopamine D4.4 receptor over dopamine D2(short) receptor; type: protein assay
[4] = molecular target: Dopamine receptors; D3 & D4 (Homo sapiens) (UniProt P35462+P21917); experiment: Selectivity for human dopamine D4.4 receptor over dopamine D3 receptor; type: protein assay

Compound	Selectivity ratio [1]	Selectivity ratio [2]	Selectivity ratio [3]	Selectivity ratio [4]
Fc1ccc(N2CCN(Cc3cn4cccnc4n3)CC2)cc1	> 440	> 440	> 440	> 440
Fc1ccc(N2CCN(Cc3cn4ccncc4n3)CC2)cc1	> 440	> 440	> 440	> 440
CN1CCN(c2ccc3nc(CN4CCN(c5ccc(Cl)c(Cl)c5)CC4)cn3n2)CC1	> 440	> 440	> 440	> 440
Clc1ccc(N2CCN(Cc3cn4nc(N5CCCCC5)ccc4n3)CC2)cc1Cl	> 440	> 440	> 440	> 440
Fc1ccc(N2CCN(Cc3cn4nc(Cl)ccc4n3)CC2)cc1	> 440	> 440	> 440	72
